# Like-named read-outs stand apart in the source and are kept apart here.
# System: TK6 cells
# Conditions: 24 to 27 hrs
compound,measurement,setting,value
CN(N=O)C(=N)N[N+](=O)[O-],Avg. % EMA+,0.003125 μg/ml,4.3%
same,Avg. % M,0.003125 μg/ml,1.0%
same,Avg. % MN,0.003125 μg/ml,2.0%
same,Avg. % RS,0.003125 μg/ml,78.3%
same,Avg. M as % G2/M,0.003125 μg/ml,1.9%
same,Avg. % EMA+,0.00625 μg/ml,5.9%
same,Avg. % M,0.00625 μg/ml,0.6%
same,Avg. % MN,0.00625 μg/ml,4.4%
same,Avg. % RS,0.00625 μg/ml,69.7%
same,Avg. M as % G2/M,0.00625 μg/ml,1.1%
same,Avg. % EMA+,0.0125 μg/ml,7.3%
same,Avg. % M,0.0125 μg/ml,0.4%
same,Avg. % MN,0.0125 μg/ml,8.9%
same,Avg. % RS,0.0125 μg/ml,59.1%
same,Avg. M as % G2/M,0.0125 μg/ml,0.9%
same,Avg. % EMA+,0.05 μg/ml,11.0%
same,Avg. % M,0.05 μg/ml,0.4%
same,Avg. % MN,0.05 μg/ml,9.1%
same,Avg. % RS,0.05 μg/ml,44.1%
same,Avg. M as % G2/M,0.05 μg/ml,1.1%
same,Avg. % EMA+,[…],10.3%
same,Avg. % M,[…],0.4%
same,Avg. % MN,[…],8.3%
same,Avg. % RS,[…],48.6%
same,Avg. M as % G2/M,[…],0.9%

# — patent publication US20140017673A1, “METHOD FOR ENUMERATING EUKARYOTIC CELL MICRONUCLEI WITH AN EMPHASIS ON SIMULTANEOUSLY ACQUIRING CYTOTOXICITY AND MODE OF ACTION INFORMATION” (priority 2012, published 2014)
